Earlier results as cited in publication PMC10202811 (Nature Medicine, 2023).

Assays:
[1] = test system: ALK-fusion-driven refractory or relapsed anaplastic large cell lymphoma; set-up: method as in PMID 28787259; settings: cited from earlier work
[2] = test system: refractory or relapsed ALK-mutant neuroblastoma; set-up: method as in PMID 33568345; settings: children, 3/20; cited from earlier work

SMILES: C[C@@H](Oc1cc(-c2cnn(C3CCNCC3)c2)cnc1N)c1c(Cl)ccc(F)c1Cl [crizotinib]
- RR [1]: 90%
- RR (CR/PR) [2]: 15%
